{
  "source": "patent US7442776B2",
  "about": "“Cancerous disease modifying antibodies” (priority 1999, dated 2008)",
  "parameters_in_all_cases": "key to the marks not given beside the values",
  "conditions_in_all_cases": "purified antibody or control, 5 days incubation, calcein; four experiments in triplicate",
  "key": {"[1]": {"tested_on": "MDA-MB-468 (MB-468) breast cancer cell line", "test": "Live/Dead cytotoxicity assay"}, "[2]": {"tested_on": "CCD-27sk non-cancer cell line"}, "[3]": {"tested_on": "SW1116 colon cancer cell line"}},
  "data": [
    {"substance": "anti-EGFR: positive control antibody C225, IgG1, kappa, 5 microgram/mL, Cedarlane", "values": [
      {"measurement": "In Vitro Cytotoxicity, MB-468", "setting": "[1]", "result": "+++"},
      {"measurement": "In Vitro Cytotoxicity, CCD 27sk", "setting": "[2]", "result": "++"},
      {"measurement": "In Vitro Cytotoxicity, SW1116", "setting": "[3]", "result": "+++"}
    ]}
  ]
}
